For 3 molecules, IC50 results are on record in US20240358689A1, “Modulators Of The Beta-3 Adrenergic Receptor Useful For The Treatment Or Prevention Of Renal Cystic Disease and Cardiorenal Syndrome” (Arena Pharmaceuticals, Inc., priority 2021, published 2024).

Protein sequences, listed by entry. Tags and fused reporters are not part of them.
UniProt P13945, whole entry: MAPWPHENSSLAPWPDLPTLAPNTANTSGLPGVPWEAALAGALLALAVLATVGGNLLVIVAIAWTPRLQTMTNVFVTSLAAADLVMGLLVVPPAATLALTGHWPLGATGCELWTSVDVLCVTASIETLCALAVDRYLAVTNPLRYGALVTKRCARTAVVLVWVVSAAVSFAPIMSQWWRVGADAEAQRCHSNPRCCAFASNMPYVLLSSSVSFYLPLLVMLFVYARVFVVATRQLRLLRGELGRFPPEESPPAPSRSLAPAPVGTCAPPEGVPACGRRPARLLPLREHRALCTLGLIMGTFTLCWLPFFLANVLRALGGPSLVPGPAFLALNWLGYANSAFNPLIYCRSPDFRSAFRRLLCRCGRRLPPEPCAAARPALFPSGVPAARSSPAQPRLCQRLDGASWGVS

The target in the experiment is Beta-3 Adrenergic Receptor (Homo sapiens, UniProt P13945). The experiment is described as follows: Homogeneous Time-Resolved Fluorescence (HTRF) cAMP antagonist assay. The format is cell-based. The note with it: specific IC50 values listed in text, CHO-K1 cells, isoproterenol at EC90. (Time-resolved FRET reads energy transfer from a long-lived donor to a nearby acceptor.)
Regarding `CCN1CCOc2ncc(S(=O)(=O)N3CCC4(CC3)C[C@@H](NC[C@H](O)COc3cccc(S(=O)(=O)C5CC5)c3)CO4)cc21`, the IC50 (as a rule, the midpoint of a concentration-inhibition curve) worked out at 29.4 nM.

Molecule `NCc1ccc(-c2cccc(S(=O)(=O)N3CCC4(CC3)C[C@@H](NC[C@H](O)COc3cccc(S(=O)(=O)CC(N)=O)c3)CO4)c2)cc1` had an IC50 of 84.6 nM. `CCOc1ccc(-c2ccc(CN)cc2)cc1S(=O)(=O)N1CCC2(CC1)C[C@@H](NC[C@H](O)COc1cccc(S(=O)(=O)C3CC3)c1)CO2`: the half-maximal inhibitory concentration (IC50) was determined as 15.8 nM.
